Laboratory results as given in patent US5550124A, “Use of peripheral-type benzodiazpine sites for treatment of CNS trauma or disease” (priority 1991, dated 1996).

Biological target: T1, peripheral-type BZ receptors (Rattus norvegicus, UniProt P16257)
T1 construct: displacement of ^3 H-RO5-4864 in brain homogenates; from tissue; host or cells: brain homogenates
Experiment: Competitive binding assay, displacement of 3H-Ro5-4864 in brain homogenates
Excerpt: Sprengel, R., et al., "Molecular cloning and expression of cDNA encoding a peripheral-type benzodiazepine receptor," J. Biol. Chem., 264:20415-20421 (1989).
Some of these compounds were further tested in in vivo studies.

SMILES: O=C1CN=C(c2ccccc2Cl)c2cc([N+](=O)[O-])ccc2N1 [Clonazepam]
- binding affinity to peripheral-type BZ sites (in words): very high IC50 values

SMILES: CC(C)(C)OC(=O)c1ncn2c1[C@@H]1CCCN1C(=O)c1c(Br)cccc1-2 [Rol6-6028]
- binding affinity to peripheral-type BZ sites (in words): very high IC50 values
